Target: T1, human TRPA1 (Homo sapiens, UniProt O75762, K186N/R3C/R58T)
T1 construct: expressed in transfected cells; pcDNA3 control cells
Assay: Intracellular calcium (Fluo-4, FLIPR) activation of TRPA1 cells by GRAS compounds;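 note: TRPA1-expressing cells, fluorescence read on a FLIPR Tetra (ex 488 nm, em 514 nm) every 2 s for 10 min after compound addition, baseline subtracted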
Type: cell-based
Conditions: Table 1(c); 1 mM; relative to AITC 30 μM

Sequences of proteins named here, by UniProt entry; tags and fusion partners are left off.
UniProt O75762, whole entry R3C/R58T/K186N: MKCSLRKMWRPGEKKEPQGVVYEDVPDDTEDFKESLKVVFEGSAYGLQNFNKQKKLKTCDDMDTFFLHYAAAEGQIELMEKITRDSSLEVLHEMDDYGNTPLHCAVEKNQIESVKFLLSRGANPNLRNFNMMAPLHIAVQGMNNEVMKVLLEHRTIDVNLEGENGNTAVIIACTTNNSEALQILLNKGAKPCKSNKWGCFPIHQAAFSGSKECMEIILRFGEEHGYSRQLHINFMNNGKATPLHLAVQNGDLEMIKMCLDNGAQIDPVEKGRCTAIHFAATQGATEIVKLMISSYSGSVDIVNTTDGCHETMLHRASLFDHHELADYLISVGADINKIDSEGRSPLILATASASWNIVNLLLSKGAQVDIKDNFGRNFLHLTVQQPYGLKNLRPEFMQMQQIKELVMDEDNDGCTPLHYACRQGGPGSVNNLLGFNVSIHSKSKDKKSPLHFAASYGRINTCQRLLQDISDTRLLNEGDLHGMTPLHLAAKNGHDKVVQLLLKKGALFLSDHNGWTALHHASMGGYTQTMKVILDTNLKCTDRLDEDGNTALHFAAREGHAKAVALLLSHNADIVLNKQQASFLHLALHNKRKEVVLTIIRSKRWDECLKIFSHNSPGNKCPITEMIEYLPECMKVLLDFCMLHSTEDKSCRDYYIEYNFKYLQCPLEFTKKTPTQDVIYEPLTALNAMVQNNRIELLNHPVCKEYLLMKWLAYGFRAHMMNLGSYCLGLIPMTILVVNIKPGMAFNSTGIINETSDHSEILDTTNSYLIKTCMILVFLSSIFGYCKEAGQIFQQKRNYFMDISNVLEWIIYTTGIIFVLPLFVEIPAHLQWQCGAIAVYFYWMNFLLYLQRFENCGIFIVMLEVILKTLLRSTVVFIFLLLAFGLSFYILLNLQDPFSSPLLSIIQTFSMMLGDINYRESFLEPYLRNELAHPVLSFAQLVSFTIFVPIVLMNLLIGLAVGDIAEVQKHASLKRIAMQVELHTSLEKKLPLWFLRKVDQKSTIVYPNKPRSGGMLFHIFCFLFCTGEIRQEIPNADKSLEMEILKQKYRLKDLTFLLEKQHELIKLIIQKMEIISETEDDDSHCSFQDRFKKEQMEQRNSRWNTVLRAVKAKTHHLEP

In the case of Ammonium carbonate, the “A1 activation, % of agonist value” is reported as 52.81%.

Source: patent US9427415B2, “Methods and compositions for modifying sensorial perception” (The Procter & Gamble Company, priority 2014, dated 2016)
